Assays:
Phakopsora pachyrhizi [1] = assay: Protective control of soybean rust on soybeans, inoculation six days after treatment (PHAKPA P6); type: in vivo; conditions: soybean seedlings inoculated six days after treatment, strain with F129L in cytochrome b, % diseased leaf area, untreated controls usually higher than 85 %; for PHAKPA Disease level (%) P6 at 4 ppm: 4 ppm spray; for PHAKPA Disease level (%) P6 at 16 ppm: 16 ppm spray
Phakopsora pachyrhizi [2] = assay: Protective control of soybean rust on soybeans, inoculation 2 days after treatment (PHAKPA P2); type: in vivo; conditions: soybean seedlings inoculated 2 days after treatment, strain with F129L in cytochrome b, % diseased leaf area, untreated controls usually higher than 85 %; for PHAKPA Disease level (%) P2 at 4 ppm: 4 ppm spray; for PHAKPA Disease level (%) P2 at 16 ppm: 16 ppm spray

Row | SMILES | PHAKPA Disease level (%) P6 at 4 ppm (Phakopsora pachyrhizi [1]) | PHAKPA Disease level (%) P6 at 16 ppm (Phakopsora pachyrhizi [1]) | PHAKPA Disease level (%) P2 at 4 ppm (Phakopsora pachyrhizi [2]) | PHAKPA Disease level (%) P2 at 16 ppm (Phakopsora pachyrhizi [2])
1 | CO/N=C(/C(=O)OC)c1cccc(C)c1CO/N=C(/c1nccs1)C(F)(F)F [Example 149] | 100% | 67% | 70% | 4%
2 | CO/N=C(/C(=O)OC)c1cccc(C)c1CO/N=C(\C)c1ncc(-c2cccc(F)c2)s1 [Example 139] | 90% | 87% | 100% | 90%
3 | CO/N=C(\C)c1ccnc(/C(C)=N/OCc2c(C)cccc2/C(=N\OC)C(=O)OC)c1 [Example 29, Methyl (2E)-2-methoxyimino-2-[2-[[(E)-1-[4-[(E)-N-methoxy-C-methyl-carbonimidoyl]-2-pyridyl]ethylideneamino]oxymethyl]-3-methyl-phenyl]acetate] | 58% | 21% | 36% | 7%
4 | CNC(=O)/C(=N/OC)c1cccc(C)c1CO/N=C(\C)c1cncc(F)c1 [Example 76] | 97% | 70% | 93% | 40%
5 | CNC(=O)/C(=N/OC)c1cccc(C)c1CO/N=C(/c1cc(C(F)(F)F)ccn1)C1CC1 [Example 70, (2E)-2-[2-[[(E)-[cyclopropyl-[4-(trifluoromethyl)-2-pyridyl]methylene]amino]oxymethyl]-3-methyl-phenyl]-2-methoxyimino-N-methyl-acetamide] | 14% | 1% | 5% | 0%
6 | CNC(=O)/C(=N/OC)c1cccc(C)c1CO/N=C(\C)c1cncc(C(F)(F)F)c1 [Example 85, (2E)-2-methoxyimino-N-methyl-2-[3-methyl-2-[[(E)-1-[5-(trifluoromethyl)-3-pyridyl]-ethylideneamino]oxymethyl]phenyl]acetamide] | 100% | 77% | 100% | 43%
7 | CO/N=C(/C(=O)OC)c1cccc(C)c1CO/N=C(\C)c1cn(C)nc1C(F)F [Example 49] | 90% | 83% | 100% | 100%
8 | CO/N=C(/C(=O)OC)c1cccc(C)c1CO/N=C(\C)c1ncc(-c2cccc(C(F)(F)F)c2)s1 [Example 150] | 100% | 73% | 100% | 83%
9 | CNC(=O)/C(=N/OC)c1cccc(C)c1CO/N=C(\C)c1cc(-c2ccc(F)cc2)sn1 [Example 12, (2E)-2-[2-[[(E)-1-[5-(4-Fluorophenyl)isothiazol-3-yl]ethylideneamino]oxymethyl]-3-methyl-phenyl]-2-methoxyimino-N-methyl-acetamide] | 50% | 19% | 73% | 12%
10 | CNC(=O)/C(=N/OC)c1cccc(C)c1CO/N=C(\C)c1cc(C(F)(F)F)cc(C)n1 [Example 80] | 15% | 0% | 4% | 0%
11 | CO/N=C(/C(=O)OC)c1cccc(C)c1CO/N=C(\C)c1ncc(C)s1 [Example 147] | 100% | 100% | 100% | 87%
12 | CO/N=C(/C(=O)OC)c1cccc(C)c1CO/N=C(\C)c1cccc(C(F)F)n1 [Example 9] | 90% | 47% | 100% | 50%
13 | CO/N=C(/C(=O)OC)c1cccc(C)c1CO/N=C(\C)c1ccnc(C(F)(F)F)c1 [Example 47] | 83% | 90% | 97% | 87%
14 | CO/N=C(/C(=O)OC)c1cccc(C)c1CO/N=C(\C)c1ncc(C(F)(F)F)s1 [Example 123, Methyl (2E)-2-methoxyimino-2-[3-methyl-2-[[(E)-1-[5-(trifluoromethyl)thiazol-2-yl]-ethylideneamino]oxymethyl]phenyl]acetate] | 50% | 14% | 60% | 23%
15 | CNC(=O)/C(=N/OC)c1cccc(C)c1CO/N=C(\C)c1cccc(SC)n1 [Example 93] | 80% | 37% | 57% | 16%
16 | CNC(=O)/C(=N/OC)c1cccc(C)c1CO/N=C(\C)c1ncc(-c2cccc(F)c2)s1 [Example 140] | 93% | 83% | 100% | 100%

Source: EP3970494A1 (priority 2020, dated 2022)
